Data reported in patent US20260069689A1, “ANTI-SARS-COV-2-SPIKE GLYCOPROTEIN ANTIBODIES AND ANTIGEN-BINDING FRAGMENTS” (Regeneron, published 2026).

Target: T1, human CD20 on Jurkat cells (human, UniProt P11836 1-297)
T1 sequence: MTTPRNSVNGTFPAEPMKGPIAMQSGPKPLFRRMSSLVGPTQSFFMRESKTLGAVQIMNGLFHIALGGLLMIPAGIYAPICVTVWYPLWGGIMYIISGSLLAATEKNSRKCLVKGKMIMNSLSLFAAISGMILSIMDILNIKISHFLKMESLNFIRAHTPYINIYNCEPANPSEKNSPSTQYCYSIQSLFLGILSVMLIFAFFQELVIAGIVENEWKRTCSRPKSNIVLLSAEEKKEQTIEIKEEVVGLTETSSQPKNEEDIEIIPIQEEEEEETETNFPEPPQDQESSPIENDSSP
Experiment: cell-based or functional assay

B1: mAb15160 (antibody, V domains shown)
VH: EVQLVESGGGLVQPGGSLRLSCSASGFTFSRYAMYWVRQAPGKGLEYVSAISSDGGSTYDADSVKGRFTISRANSKNTLYLQMSSLRAEDTAVYYCVKGLRELLYYYYGMDVWGQGTTVTVSS
VL: DIQMTQSPSSLSASVGDRVTITCRAGQSISSFLNWYQQKPGKAPKLLIYAASSLQSGVPSRFSGSGSGTDFTLTISSLQPEDFATYYCQQSYITPFTFGPGTKVDIKR
For B1, which “Max cytotoxicity (%), ADCC, NK donor #1, Jurkat/hCD20 cells” value is on record?
The value was 4.6%.

And the “Max cytotoxicity (%), ADCC, NK donor #2, Jurkat/hCD20 cells” value?
Its value is 3.1%.

And the “Max cytotoxicity (%), ADCC, NK donor #3, Jurkat/hCD20 cells” value?
The value was 0%.
